Target: T1, humanized OX1 receptor (Homo sapiens, UniProt O43613)
T1 construct: expressed in transfected cells; host or cells: CHO (Chinese hamster ovary) cells
Assay: Antagonistic effect on humanized OX1 receptor, calcium flux by fluorescence detection in CHO cells
Format: cell-based
Protocol: The capability of the compounds provided herein to antagonize humanized OX1 receptor expressed in Chinese hamster ovary (CHO) cells was evaluated by the influence of the compounds disclosed herein on calcium flux in cells induced by agonist detected by a method of fluorescence detection. The cells were suspended in DMEM culture medium (invitrogen), and then added to a microplate with an average density of 2×10^4 cells/well. The Hank's balanced salt solution (pH 7.4) containing fluorescent probes (Fluo4 NW, Invitrogen), probenecid (invitrogen), 20 mM hydroxyethyl piperazine acetic sulfuric acid (invitrogen) was added to the above microplate, and then incubated together with the cells at 37° C. for 60 min, further incubated at 22° C. for 15 min. The microplate was placed in a microplate reader (CellLux, PerkinElmer), and to which was added the test compound or reference antagonist or Hank's balanced salt solution, 5 min later, 3 nM of orexin A or Hank's balanced salt solution (as a blank contrast) was added. […] The experimental results were expressed as an inhibition percentage relative to a control group (the group with 3 nM of orexin A).
The standard reference antagonist is SB334867, and IC50 values were calculated by the dose-effect curve obtained from a series of concentrations of the experimental test.

The chains behind the UniProt entries cited, without tags or fusion partners.
UniProt O43613, whole entry: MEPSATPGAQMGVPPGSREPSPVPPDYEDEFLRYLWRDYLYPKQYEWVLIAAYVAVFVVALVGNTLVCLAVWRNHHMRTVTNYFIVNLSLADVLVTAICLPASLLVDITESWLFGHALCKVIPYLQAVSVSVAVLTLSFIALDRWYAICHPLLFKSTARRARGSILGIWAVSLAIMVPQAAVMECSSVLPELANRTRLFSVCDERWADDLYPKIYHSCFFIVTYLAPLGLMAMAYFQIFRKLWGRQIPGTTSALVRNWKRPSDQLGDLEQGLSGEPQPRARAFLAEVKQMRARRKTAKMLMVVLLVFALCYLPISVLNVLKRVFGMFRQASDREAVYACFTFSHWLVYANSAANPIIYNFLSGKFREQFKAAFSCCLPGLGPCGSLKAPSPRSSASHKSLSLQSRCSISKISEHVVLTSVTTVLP

Cc1ccc(-n2nccn2)c(C(=O)N2CCN(c3nc4cc(Cl)ccc4o3)CC[C@H]2C)c1 [suvorexant, reference compound]
IC50: 0.341 µM

Reference: US10370380B2, “Octahydropyrrolo[3,4-c]pyrrole derivatives and uses thereof” (Sunshine Lake Pharma Co., Ltd., priority 2015, dated 2019)
